{
  "source": "paper PMC5431190",
  "about": "“Investigation of cationicity and structure of pseudin-2 analogues for enhanced bacterial selectivity and anti-inflammatory activity” (Scientific Reports, 2017)",
  "test_system": "human red blood cells (hRBCs)",
  "experiment": "Haemolytic activity",
  "assay_type": "cell-based",
  "settings": "4% (v/v) hRBCs in PBS, 1 h at 37 °C, absorbance 405 nm; printed in both Gram-negative and Gram-positive sections",
  "procedure": "Peptide-induced lysis of human red blood cells (hRBCs) was determined as follows. Fresh hRBCs were washed 2–3 times with phosphate-buffered saline (PBS) by centrifugation for 5 min at 2500 rpm at 4 °C. Peptides in PBS were incubated with 4% (v/v) hRBCs for 1 h at 37 °C. Samples were then centrifuged for 5 min at 1000 × g. The absorbance of the supernatant at 405 nm was used as a measure of haemolysis. As a positive control, 100% haemolysis was obtained by treating hRBCs with 0.1% Triton X-100.",
  "data": [
    {"molecule": "CC[C@H](C)[C@H](NC(=O)CN)C(=O)NCC(=O)N[C@@H](C)C(=O)N[C@H](C(=O)N[C@@H](CC(C)C)C(=O)N[C@@H](CCCCN)C(=O)N[C@H](C(=O)N[C@@H](CC(C)C)C(=O)N[C@H](C(=O)N[C@H](C(=O)NCC(=O)N[C@@H](CC(C)C)C(=O)N1CCC[C@H]1C(=O)N[C@@H](C)C(=O)N[C@@H](CC(C)C)C(=O)N[C@H](C(=O)N[C@@H](CO)C(=O)N[C@@H](Cc1c[nH]c2ccccc12)C(=O)N[C@H](C(=O)N[C@@H](CCCCN)C(=O)N[C@@H](CCCNC(=N)N)C(=O)N[C@@H](CCCCN)C(=O)N[C@@H](CCCNC(=N)N)C(=O)N[C@@H](CCC(N)=O)C(=O)N[C@@H](CCC(N)=O)C(N)=O)[C@@H](C)CC)[C@@H](C)CC)[C@@H](C)O)[C@@H](C)O)C(C)C)C(C)C", "note": "[Melittin, reference compound]", "values": [
      {"measurement": "MHC (minimal peptide concentration that produces haemolysis)", "result": 0.4, "unit": "µM"}
    ]}
  ]
}
